Laboratory results: patent publication US20250136593A1, “DEGRADATION AGENT AND USE THEREOF” (HITGEN INC., priority 2021, published 2025)

Protein sequences, listed by entry. Tags and fused reporters are not part of them.
UniProt Q07817, whole entry: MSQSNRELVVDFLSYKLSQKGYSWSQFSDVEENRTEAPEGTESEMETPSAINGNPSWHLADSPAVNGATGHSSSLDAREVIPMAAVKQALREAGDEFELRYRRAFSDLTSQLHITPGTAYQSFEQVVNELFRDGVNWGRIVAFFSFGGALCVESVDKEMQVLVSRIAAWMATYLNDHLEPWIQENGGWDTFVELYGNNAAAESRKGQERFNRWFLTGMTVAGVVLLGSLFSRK
UniProt Q96SW2, whole entry: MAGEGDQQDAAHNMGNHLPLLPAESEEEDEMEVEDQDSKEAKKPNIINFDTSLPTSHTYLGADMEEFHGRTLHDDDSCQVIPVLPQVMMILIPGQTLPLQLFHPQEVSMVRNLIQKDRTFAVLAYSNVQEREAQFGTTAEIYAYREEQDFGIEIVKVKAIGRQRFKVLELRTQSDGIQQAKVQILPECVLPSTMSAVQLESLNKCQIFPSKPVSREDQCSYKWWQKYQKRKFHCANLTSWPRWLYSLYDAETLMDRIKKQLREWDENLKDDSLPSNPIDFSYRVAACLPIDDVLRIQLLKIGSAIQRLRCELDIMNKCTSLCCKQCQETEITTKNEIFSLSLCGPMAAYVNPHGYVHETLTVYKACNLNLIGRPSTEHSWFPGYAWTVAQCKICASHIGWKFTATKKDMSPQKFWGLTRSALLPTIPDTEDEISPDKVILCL
UniProt Q16531, whole entry partner: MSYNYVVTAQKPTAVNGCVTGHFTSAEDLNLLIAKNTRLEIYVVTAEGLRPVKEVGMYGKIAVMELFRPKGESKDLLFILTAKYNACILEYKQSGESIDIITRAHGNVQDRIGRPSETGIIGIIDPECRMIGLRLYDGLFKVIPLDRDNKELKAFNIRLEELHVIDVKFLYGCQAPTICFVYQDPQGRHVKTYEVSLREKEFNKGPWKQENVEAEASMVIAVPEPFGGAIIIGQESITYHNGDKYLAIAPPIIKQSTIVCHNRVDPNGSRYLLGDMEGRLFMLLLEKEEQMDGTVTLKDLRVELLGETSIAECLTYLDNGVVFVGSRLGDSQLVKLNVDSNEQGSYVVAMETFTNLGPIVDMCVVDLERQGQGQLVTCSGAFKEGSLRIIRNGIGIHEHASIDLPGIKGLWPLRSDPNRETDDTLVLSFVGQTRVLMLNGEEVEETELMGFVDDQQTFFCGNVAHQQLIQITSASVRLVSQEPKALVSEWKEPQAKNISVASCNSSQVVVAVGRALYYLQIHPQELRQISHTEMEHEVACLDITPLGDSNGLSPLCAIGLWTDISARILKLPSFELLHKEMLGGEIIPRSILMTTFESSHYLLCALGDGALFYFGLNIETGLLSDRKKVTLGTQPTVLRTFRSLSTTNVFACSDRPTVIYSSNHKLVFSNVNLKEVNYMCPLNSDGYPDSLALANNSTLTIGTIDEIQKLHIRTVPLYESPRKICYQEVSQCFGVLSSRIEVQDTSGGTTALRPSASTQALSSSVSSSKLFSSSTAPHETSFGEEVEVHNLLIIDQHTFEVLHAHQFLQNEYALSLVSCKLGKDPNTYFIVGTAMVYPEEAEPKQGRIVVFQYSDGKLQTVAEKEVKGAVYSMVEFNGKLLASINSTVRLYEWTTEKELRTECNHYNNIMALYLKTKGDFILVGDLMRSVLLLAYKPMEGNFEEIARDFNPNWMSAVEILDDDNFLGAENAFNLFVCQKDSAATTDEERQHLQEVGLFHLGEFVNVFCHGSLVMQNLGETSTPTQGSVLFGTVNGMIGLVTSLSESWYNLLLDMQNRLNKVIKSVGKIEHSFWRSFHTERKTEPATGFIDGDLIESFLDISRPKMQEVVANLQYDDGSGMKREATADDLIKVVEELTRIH

How the values were obtained:
MOLT-4 cells = assay: Inhibitory activity on MOLT4 cell proliferation by Cell Titer-Glo method; settings: read-out: IC50 concentration for inhibiting MOLT-4 cells, 72 hours incubation
Procedure: Experimental Example 5, Evaluation Experiment of Inhibitory Activity of Compound on MOLT4 Cell Proliferation by Cell Titer-Glo Method
RPMI medium modified (Hyclone), FBS (Corning), Dimethyl Sulfoxide, P/S, CellTiter-Gbo Luminescent Cell Viability Assay (Promega), MOLT-4 cell (ATCC).
MOLT-4 cells were cultured in monolayer in vitro in an incubator containing 5% CO2 air at 37° C. The culture medium was RPMI 1640 with 10% FBS and 1% P/S. 15 μL of MOLT4 cells, containing 5×10^4 cells per ml, was inoculated to a 384-well plate (Corning, 3707), 750 cells/well, and incubated at 37° C. and 5% CO2 for 30 minutes. […]
The 384-well plate was taken out from the cell culture incubator and allowed to stand at room temperature, equilibrated for 20 to 30 minutes, and then 25 μl of Cell Titer-Glo detection reagent was added to each reaction well, lysed on a shaker for 2 minutes, incubated for 10 minutes, and BMG PHERAStar (Luminescence) was used for reading.
The inhibition rate was calculated based on the luminescence signals: the average value of the negative control (maximum signal control) and the blank control (minimum signal control) was first calculated, then the inhibition rates of the compound at different concentrations for the cells were calculated as follows: […]

[1] = target: BCL-XL protein in MOLT-4 cells (Homo sapiens, UniProt Q07817); assay: Degradation effect on BCL-XL protein in MOLT-4 cells by Western Blot; settings: read-out: DC50 concentration for BCL-XL protein degradation, 24 hours incubation, corrected by β-actin
Procedure: Experimental Example 6. Experiment to Evaluate Degradation Effect of Compound on BCL-XL Protein in MOLT-4 Cells by Western Blot Method
SDS-PAGE gel (4-12%) (Genscript), PMSF 100 mM (Biyotime), Cocktail 100× (Biyotime), P/S, RPMI medium modified (Hyclone), FBS (Corning), 4× loading buffer (Thermo), Bcl-xL (54H6) Rabbit mAb (CST), Anti-rabbit IgG-HRP (CST), Anti-β-actin-HRP (Abcam), RIPA (Biyotime), Tween-20, MOLT-4 cell (ATCC), BCA Protein Assay Kit (TIANGEN), Immobilon Western Chemilunescent HRP Substrate (Millipore). […]
2) Protein extraction: After the compound and the cells were co-incubated for 24 hours, the cells were collected and placed in a 1.5 mL centrifuge tube, washed twice with ice-cold PBS, the supernatant was discarded, then 150 μL of RIPA lysis buffer was added and lysis was carried out on ice for 30 minutes; then the cell lysate was centrifuged in a low-temperature centrifuge at 15,000 rpm for 10 minutes, and the supernatant was collected; and BCA Protein Assay Kit was used to quantify the protein in the resulting cell lysate supernatant. […]

[2] = target: ternary complex between BCL-XL and CRBN-DDB1 (Homo sapiens, UniProt Q07817+Q96SW2); assay: Compound-induced formation of ternary complex between BCL-XL and CRBN-DDB1 by AlphaLISA; settings: peak signal; 60 nM Strep-BCL-XL and 60 nM His-CRBN/DDB1
Procedure: Experimental Example 4, Detection of Compound-Induced Formation of Ternary Complex Between BCL-XL and CRBN-DDB1 by AlphaLISA Method
Na2HPO4(Sigma), NaH2PO4(Sigma), sodium chloride (Sigma), Tween-20 (Sigma), AlphaLISA®Nikel Chelate Acceptor beads (PerkinElmer), Strep-Tactin® Alpha Donor beads (PerkinElmer), Assay plate (Corning), Strep-BCl-XL (HitGen), His-CRBN/DDB1 (HitGen).
DMSO was used to dissolve the dry powder of the test compound to obtain a 10.00 mM solution. The instrument ECHO was used to perform gradient dilution of the compound, which was then added to a 384-well reaction plate (Corning, Cat #3824), so that the final concentration of DMSO in the entire reaction system (10.0 μL) was less than 1%, and the same amount of DMSO was added and used as a control.
Strep-BCl-XL and His-CRBN/DDB1 proteins were dissolved in buffer (10 mM NaH2PO4, 40 mM Na2HPO4, 150 mM sodium chloride, 0.03% Tween20, pH=7.4) to obtain a protein mixture of 60 nM Strep-BCL-XL and 60 nM His-CRBN/DDB1, the protein mixture (5ul/well) was added to the 384-well plate in which the compound had been added, and incubated at room temperature for 30 minutes, then 5 μl of a detection mixture with 50 μg/ml AlphaLISA®Nikel Chelate Acceptor beads and 50 μg/ml Strep-Tactin® Alpha Donor beads was added, and incubated at room temperature for 2 hours; and then a microplate reader was used to detect AlphaLISA signal. […]

Structure (SMILES) | IC50 (MOLT-4 cells) [µM] | DC50 [1] [µM] | AlphaLISA signal (PROTAC ternary complex signal intensity) [2]
O=C1CCC(N2Cc3cc(C#CCN4CCN(CC#Cc5ccc(/C=C/c6ccc(C(=O)N7CCc8cnc(-c9cnc%10ccccc%10c9)nc8C7)cc6)cc5)CC4)ccc3C2=O)C(=O)N1 (centres unmarked) | 100 to 200 | < 1 | +
O=C1CCC(N2C(=O)c3cccc(OCCCCN4CCN(CC#Cc5ccc(/C=C/c6ccc(C(=O)N7CCc8cnc(-c9cnc%10ccccc%10c9)nc8C7)cc6)cc5)CC4)c3C2=O)C(=O)N1 (centres unmarked) |  | 100 to 200 | +
